Assay results reported in ChEMBL document CHEMBL1125722 (J Med Chem, 1991).

The chains behind the UniProt entries cited, without tags or fusion partners.
UniProt P61169, whole entry: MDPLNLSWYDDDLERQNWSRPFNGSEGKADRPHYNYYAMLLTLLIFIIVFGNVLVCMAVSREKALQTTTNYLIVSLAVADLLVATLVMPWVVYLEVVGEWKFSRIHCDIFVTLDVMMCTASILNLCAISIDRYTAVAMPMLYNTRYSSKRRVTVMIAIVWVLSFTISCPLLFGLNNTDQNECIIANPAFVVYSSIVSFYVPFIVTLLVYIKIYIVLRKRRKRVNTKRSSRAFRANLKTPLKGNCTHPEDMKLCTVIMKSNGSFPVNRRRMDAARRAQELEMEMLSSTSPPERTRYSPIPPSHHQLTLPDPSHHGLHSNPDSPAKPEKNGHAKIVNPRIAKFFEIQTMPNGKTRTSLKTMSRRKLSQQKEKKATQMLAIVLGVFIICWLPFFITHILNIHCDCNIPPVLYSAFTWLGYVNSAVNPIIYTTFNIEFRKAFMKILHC

Biological target: D(2) dopamine receptor (Rattus norvegicus, UniProt P61169)
Assay: Neuroleptic activity in terms of [3H]spiroperidol binding in rat striatal membrane to Dopamine receptor D2
Type: cell membranes, Striatum

IC50: 0.302 µM
Compound: CN1CCc2cccc3c2[C@H]1Cc1ccc(O)c(O)c1-3 [APOMORPHINE]
